Yeast mating assay 1: variants of the scFv Ab-14

Target peptide (SARS-CoV-2 spike, HR2 region): PDVDLGDISGINAS

Ab-14 is the parent antibody, in scFv form: VH, then three GGGGS repeats, then VL. The heavy chain is unchanged in all variants.
VH: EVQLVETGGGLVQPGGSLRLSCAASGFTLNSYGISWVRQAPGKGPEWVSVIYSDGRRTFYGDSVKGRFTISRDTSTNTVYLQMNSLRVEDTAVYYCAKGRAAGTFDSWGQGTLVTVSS
VL: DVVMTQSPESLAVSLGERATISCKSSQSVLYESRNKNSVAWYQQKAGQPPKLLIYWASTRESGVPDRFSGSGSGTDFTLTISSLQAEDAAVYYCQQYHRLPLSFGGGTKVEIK

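AAYL50 was designed without a model: most single CDR substitutions and a random sample of double and triple ones. The assay is AlphaSeq: two haploid yeast populations carry antibody and antigen on their surface. Pairs that bind mate more often; barcode pairs of the diploids are counted by sequencing. The ratio of observed to expected reads was calibrated, replicate by replicate, on BCL2-family standards whose Kd was known from biolayer interferometry. Mating was done three times.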

Positions count from residue 1 of the parent VL; S103E puts E in place of S.
Every variant below is changed at S103 of the VL (sequential numbering).
The Kd shown is the geometric mean over detected replicates; a lower Kd is a better binder.
A pair that was not seen in any replicate is written "nd"; this usually means weak binding, but a binder can also be missed.

For S103E, the assay gave 7.8 nM (3 of 3 replicates). With E61T P101R S103I the result was 3.4 µM (2 of 3 replicates). The variant S25F K36L S103K showed 4.3 nM (3 of 3 replicates). With S33N S103W the result was 86 nM (3 of 3 replicates). The variant L30F P101I S103M showed 720 nM (2 of 3 replicates). With S62I L102N S103G the result was 30 µM (1 of 3 replicates).

With Q27C S28M S103W the result was 42 µM (2 of 3 replicates). The variant S33I S58T S103W showed nd (0 of 3 replicates). For V29T R99K S103K, the assay gave 8.7 nM (3 of 3 replicates). The variant Q95V L100A S103G showed 5.4 µM (1 of 3 replicates). The variant Q95W P101L S103L gave nd (0 of 3 replicates). The variant L100M P101K S103G showed 59 nM (2 of 3 replicates).

The variant S25Y L30I S103A gave 6.8 nM (3 of 3 replicates). The variant S28Q L100M S103M showed 12 µM (1 of 3 replicates). The variant E61H P101W S103F gave 210 nM (3 of 3 replicates). With W56A S58P S103V the result was 10 µM (2 of 3 replicates). With S28A S103G the result was 5.7 µM (1 of 3 replicates). With S58H L102S S103A the result was 7.5 nM (3 of 3 replicates).

With T59D R99D S103I the result was 1.4 µM (3 of 3 replicates). For S103T, the assay gave nd (0 of 3 replicates). The variant Q27S L102F S103A gave 7.6 nM (3 of 3 replicates). The variant L30K H98F S103T gave nd (0 of 3 replicates). For L30G A40K S103Q, the assay gave 62 µM (1 of 3 replicates). The variant S28E W56R S103M gave 5.7 nM (3 of 3 replicates).

The variant R34Y A40C S103M showed 770 nM (3 of 3 replicates). With L100N P101Q S103C the result was 4.5 nM (3 of 3 replicates). The variant Q27H P101T S103T gave nd (0 of 3 replicates). The variant T59S Q96G S103Q showed 71 µM (2 of 3 replicates). For L30M S33C S103C, the assay gave nd (0 of 3 replicates). The variant V29C K36G S103P gave 29 nM (3 of 3 replicates).

For S58C Q95P S103W, the assay gave nd (0 of 3 replicates). With R60F E61V S103G the result was nd (0 of 3 replicates). The variant Y31N A40V S103R gave nd (0 of 3 replicates). The variant T59L S62C S103N showed 65 nM (3 of 3 replicates). The variant Q27E H98S S103Q showed 30 nM (3 of 3 replicates). For K24V S26Q S103A, the assay gave 15 nM (3 of 3 replicates).

For N37D T59I S103L, the assay gave 37 nM (3 of 3 replicates). For S28L R34K S103Q, the assay gave 18 nM (3 of 3 replicates). For N37Y S62W S103G, the assay gave 10 nM (3 of 3 replicates). The variant Y31L N35F S103Q gave 83 nM (3 of 3 replicates). The variant K24H L100M S103D gave 2.9 µM (2 of 3 replicates). With K36C P101K S103P the result was 2.8 µM (1 of 3 replicates).

The variant S38D L102M S103P showed nd (0 of 3 replicates). The variant S26T P101T S103L gave 760 nM (3 of 3 replicates). For V29L Q96K S103H, the assay gave nd (0 of 3 replicates). For Q95M R99H S103P, the assay gave nd (0 of 3 replicates). The variant Q95T Y97C S103E gave 27 nM (3 of 3 replicates). With W56Q P101Y S103P the result was nd (0 of 3 replicates).

The variant A57I E61N S103F showed nd (0 of 3 replicates).

The 6 strongest on average among those seen in every replicate, once more:

| changes | apparent Kd | seen in |
|---|---|---|
| S25F K36L S103K | 4.3 nM | 3/3 |
| L100N P101Q S103C | 4.5 nM | 3/3 |
| S28E W56R S103M | 5.7 nM | 3/3 |
| S25Y L30I S103A | 6.8 nM | 3/3 |
| S58H L102S S103A | 7.5 nM | 3/3 |
| Q27S L102F S103A | 7.6 nM | 3/3 |

Three control strains display no target. For library AAYL50, 18% of the pairings with them gave a signal, with a median of 15 µM and one signal in twenty below 970 nM, so weak values seen in few replicates may be background.

Values reported by Engelhart et al. 2022, doi:10.1038/s41597-022-01779-4 (FLAb copy).